Molecules are shown by their SMILES.

Sequences of proteins named here, by UniProt entry; tags and fusion partners are left off.
UniProt P62937, whole entry: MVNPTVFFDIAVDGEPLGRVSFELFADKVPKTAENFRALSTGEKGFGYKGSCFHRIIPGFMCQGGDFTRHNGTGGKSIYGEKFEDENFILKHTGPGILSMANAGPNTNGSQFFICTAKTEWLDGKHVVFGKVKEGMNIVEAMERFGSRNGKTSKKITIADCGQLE

The assay deals with cyclophilin A (Homo sapiens, UniProt P62937). Kind of assay: Cyclophilin A TR-FRET competitive binding assay. Particulars: read-out: TR-FRET; IC50 ranges; competition with CsA-Cy5 for His-tagged CypA, two-hour incubation. (In general: TR-FRET usually uses a lanthanide donor and a delayed reading to cut background.)
For `COCC1NC(=O)[C@H](C(C)C)NC(=O)C(C)(C)/C=C/c2ccc3ccc(nc3c2)[C@@H](C)OC(=O)[C@@H]2CCCN(N2)C1=O` (single isomer, unassigned), the IC50 is 101 to 1000 nM.

Turning to `CC(C)[C@@H]1NC(=O)C(C)(C#N)/C=C/c2ccc3ccc(nc3c2)[C@@H](C)OC(=O)[C@@H]2CCCN(N2)C(=O)[C@H](C)NC1=O` (single isomer, unassigned), the IC50 is below 100 nM.

As for `CC(C)[C@@H]1NC(=O)C(C)(C(C)O)/C=C/c2ccc3ccc(nc3c2)[C@@H](C)OC(=O)[C@@H]2CCCN(N2)C(=O)[C@H](C)NC1=O` (single isomer, unassigned), the IC50 is below 100 nM.

Regarding `CC(C)[C@@H]1NC(=O)C(C)(C(C)(C)O)/C=C/c2ccc3ccc(nc3c2)[C@@H](C)OC(=O)[C@@H]2CCCN(N2)C(=O)[C@H](C)NC1=O` (single isomer, unassigned), the IC50 is below 100 nM.

For `CC(C)[C@@H]1NC(=O)C2(/C=C/c3ccc4ccc(nc4c3)[C@@H](C)OC(=O)[C@@H]3CCCN(N3)C(=O)[C@H](C)NC1=O)CCOC(C)(C)C2` (some centres unmarked) [Compound 123], the IC50 is below 100 nM.

Source of the values: patent US9512175B2, “Macrocyclic inhibitors of flaviviridae viruses” (Gilead Sciences, Inc., priority 2012, dated 2016).
